The target in one experiment is Mu-type opioid receptor (Homo sapiens, UniProt P35372). Description: Binding affinity for human opioid receptor mu 1 using [3H]- DAMGO as radioligand transfected into CHO cells.
The next experiment deals with Nociceptin receptor (Homo sapiens, UniProt P41146). Description: Binding affinity for human nociceptin (NOP) receptor using [3H]N/OFQ as radioligand transfected into CHO cells.
Experiment [1] concerns the target Kappa-type opioid receptor (Homo sapiens, UniProt P41145). The experiment can be described thus: Binding affinity for human opioid receptor kappa 1 using [3H]- U-69,593 as radioligand transfected into CHO cells.
In experiment [2] the target is Delta-type opioid receptor (Homo sapiens, UniProt P41143). The experiment can be described thus: Binding affinity for human opioid receptor delta 1 using [3H]- CL-DPDPE as radioligand transfected into CHO cells.

Protein sequences, listed by entry. Tags and fused reporters are not part of them.
UniProt P35372, whole entry: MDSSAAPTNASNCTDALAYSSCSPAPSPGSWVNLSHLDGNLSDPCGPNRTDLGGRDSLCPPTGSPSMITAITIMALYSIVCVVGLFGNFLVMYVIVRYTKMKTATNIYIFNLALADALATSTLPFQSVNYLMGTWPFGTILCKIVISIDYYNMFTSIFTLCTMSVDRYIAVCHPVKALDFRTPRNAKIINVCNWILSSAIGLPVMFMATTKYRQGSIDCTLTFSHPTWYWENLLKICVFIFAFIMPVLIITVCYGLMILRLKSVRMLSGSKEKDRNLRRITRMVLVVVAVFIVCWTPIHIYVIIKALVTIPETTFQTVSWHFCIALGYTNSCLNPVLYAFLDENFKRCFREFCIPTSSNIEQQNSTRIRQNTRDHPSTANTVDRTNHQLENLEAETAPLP
UniProt P41146, whole entry: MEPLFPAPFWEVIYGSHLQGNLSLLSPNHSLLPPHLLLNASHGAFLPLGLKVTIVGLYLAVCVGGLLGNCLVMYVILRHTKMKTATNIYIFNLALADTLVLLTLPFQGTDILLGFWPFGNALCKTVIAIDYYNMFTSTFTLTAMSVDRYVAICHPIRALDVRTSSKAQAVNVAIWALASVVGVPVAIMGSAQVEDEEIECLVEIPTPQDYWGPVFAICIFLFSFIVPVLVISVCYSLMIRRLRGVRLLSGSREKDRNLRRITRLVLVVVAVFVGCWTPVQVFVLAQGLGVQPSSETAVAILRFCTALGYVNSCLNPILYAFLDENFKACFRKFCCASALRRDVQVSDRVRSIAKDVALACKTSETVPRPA
UniProt P41145, whole entry: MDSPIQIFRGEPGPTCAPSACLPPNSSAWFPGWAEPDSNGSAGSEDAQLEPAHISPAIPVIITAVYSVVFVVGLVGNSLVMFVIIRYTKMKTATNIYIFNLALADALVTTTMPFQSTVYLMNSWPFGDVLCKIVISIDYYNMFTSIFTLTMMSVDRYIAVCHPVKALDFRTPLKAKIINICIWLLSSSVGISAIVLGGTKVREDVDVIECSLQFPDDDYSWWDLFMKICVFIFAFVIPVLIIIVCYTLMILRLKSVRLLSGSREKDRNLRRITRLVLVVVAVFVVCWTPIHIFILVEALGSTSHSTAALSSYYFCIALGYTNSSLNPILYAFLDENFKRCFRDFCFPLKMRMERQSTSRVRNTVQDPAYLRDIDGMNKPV
UniProt P41143, whole entry: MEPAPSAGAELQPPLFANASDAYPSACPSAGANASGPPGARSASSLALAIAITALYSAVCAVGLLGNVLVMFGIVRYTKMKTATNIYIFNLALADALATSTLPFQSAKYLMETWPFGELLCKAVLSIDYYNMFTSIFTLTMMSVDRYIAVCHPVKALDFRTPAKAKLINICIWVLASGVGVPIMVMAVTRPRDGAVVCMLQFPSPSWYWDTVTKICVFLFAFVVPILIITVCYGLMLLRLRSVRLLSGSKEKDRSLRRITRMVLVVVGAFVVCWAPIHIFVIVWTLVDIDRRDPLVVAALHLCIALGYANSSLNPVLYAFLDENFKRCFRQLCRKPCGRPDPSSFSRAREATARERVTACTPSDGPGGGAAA

Structures are written as SMILES. pKi: −log10 of the molar value. A value given as a limit tells only on which side of the number the result lay.

By pKi is commonly meant −log10 of the Ki, conventionally taken in molar units. A high value points to a low Ki.

Turning to `O=c1[nH]c2ccccc2n1[C@@H]1CCN2[C@H](CCC[C@H]2c2ccccc2)C1`, the pKi on Mu-type opioid receptor was 8.28; on Nociceptin receptor it was 8.24; in experiment [1], 8.96; in experiment [2] it was 5.76.

In the case of `O=c1[nH]c2ccccc2n1[C@H]1CCN2[C@H](CCC[C@H]2c2ccccc2)C1`, the pKi is 7.32 at Mu-type opioid receptor, 6.10 on Nociceptin receptor, 6.57 in experiment [1] and under 5.00 in experiment [2].

On to `CCn1c(=O)n([C@@H]2CCN3[C@H](CCC[C@H]3c3ccccc3)C2)c2ccccc21`, for which the pKi on Mu-type opioid receptor was 8.60; on Nociceptin receptor it was 7.71; in experiment [1], 7.64; in experiment [2], 5.83.

Regarding `CCn1c(=O)n([C@H]2CCN3[C@H](CCC[C@H]3c3ccccc3)C2)c2ccccc21`, the pKi is 7.75 at Mu-type opioid receptor, 6.27 on Nociceptin receptor, 6.01 in experiment [1] and 5.74 in experiment [2].
